Experimental data published in US5716929A (Vertex Pharmaceuticals, Inc., priority 1995, dated 1998).

Sequences of proteins named here, by UniProt entry; tags and fusion partners are left off. Residues count along the entry.
UniProt P29466, 120-297 limits assumed: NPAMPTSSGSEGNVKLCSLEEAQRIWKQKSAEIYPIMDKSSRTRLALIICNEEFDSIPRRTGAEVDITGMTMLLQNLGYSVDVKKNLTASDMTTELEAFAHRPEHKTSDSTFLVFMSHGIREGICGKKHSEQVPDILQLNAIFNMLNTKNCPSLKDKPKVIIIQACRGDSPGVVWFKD
UniProt P29466, 317-404 limits assumed: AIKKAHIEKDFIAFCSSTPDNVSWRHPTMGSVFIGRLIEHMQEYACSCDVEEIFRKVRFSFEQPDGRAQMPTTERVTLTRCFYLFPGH

Key:
[1] = biological target: interleukin-1β converting enzyme (ICE) (Homo sapiens, UniProt P29466); assay: Enzyme assay with UV-visible substrate (Succinyl-Tyr-Val-Ala-Asp-pNitroanilide); type: biochemical; details: read-out: UV-visible Ki, Example 4 table
[2] = tested on: mature IL-1β, Human Peripheral Blood Mononuclear Cells (PBMC); assay: Cell assay: IL-1β assay with human PBMC or enriched adherent mononuclear cells; details: read-out: Cell IC50; Example 4 table; LPS-stimulated cells, mature IL-1β by ELISA

SMILES: COc1cccc2oc(C(=O)[C@H](CC(=O)O)NC(=O)[C@H](C)NC(=O)[C@@H](NC(=O)[C@H](Cc3ccc(O)cc3)NC(C)=O)C(C)C)nc12
- Ki [1]: 0.05 µM
- IC50 [2]: 0.745 µM
